Assay results as given in ChEMBL document CHEMBL1142292, “Synthesis and biological activity of novel peptide mimetics as melanocortin receptor agonists” (Bioorg Med Chem Lett, 2008).
pEC50: −log10 of the molar value.

Sequences of proteins named here, by UniProt entry; tags and fusion partners are left off. A change or cut given only in a name is not applied to a line headed by its entry.
UniProt Q01726: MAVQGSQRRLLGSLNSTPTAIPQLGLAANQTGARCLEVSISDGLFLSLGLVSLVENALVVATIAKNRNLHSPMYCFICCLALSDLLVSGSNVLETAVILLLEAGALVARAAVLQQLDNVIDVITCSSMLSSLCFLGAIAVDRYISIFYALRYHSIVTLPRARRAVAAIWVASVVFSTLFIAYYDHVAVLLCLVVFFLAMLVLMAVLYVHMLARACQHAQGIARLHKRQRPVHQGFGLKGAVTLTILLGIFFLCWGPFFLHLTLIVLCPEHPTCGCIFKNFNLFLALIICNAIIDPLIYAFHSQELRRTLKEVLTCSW
UniProt P41968: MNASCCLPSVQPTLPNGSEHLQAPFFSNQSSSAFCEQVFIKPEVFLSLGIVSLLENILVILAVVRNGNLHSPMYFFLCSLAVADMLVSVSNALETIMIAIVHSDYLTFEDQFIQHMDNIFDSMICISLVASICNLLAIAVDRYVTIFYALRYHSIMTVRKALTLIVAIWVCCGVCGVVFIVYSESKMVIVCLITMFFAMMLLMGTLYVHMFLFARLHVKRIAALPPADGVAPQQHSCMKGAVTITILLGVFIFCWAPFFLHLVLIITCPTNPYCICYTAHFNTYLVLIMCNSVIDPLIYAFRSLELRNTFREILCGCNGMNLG

How the values were obtained:
[1] = target: Melanocyte-stimulating hormone receptor (Homo sapiens, UniProt Q01726); experiment: Agonist activity at human MC1 receptor expressed in HEK293 cells; format: functional, cell-based
Summary of the method: (§1)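 HEK293 cells stably transfected with the receptor subtype and a CRE-luciferase reporter; cells assayed in 96-well format for luciferase activity. Response expressed as percent of maximal activity (Emax) of NDP-MSH (MT-I) reference agonist.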

[2] = target: Melanocortin receptor 3 (Homo sapiens, UniProt P41968); experiment: Agonist activity at human MC3 receptor expressed in HEK293 cells; format: functional, cell-based; summary of the method: as §1

- pEC50 [1]: 8.30
- pEC50 [2]: 6.80
Structure (SMILES): O=C(N[C@H](Cc1ccc(Cl)cc1)C(=O)N1CCC(Cn2cncn2)(C2CCCCC2)CC1)[C@H]1Cc2ccccc2CN1
